In PubChem BioAssay AID602125 (The Scripps Research Institute Molecular Screening Center, 2011):
This is a selection; strong and weak results do not stand in their true shares. The source made the active and inactive calls. Rule as the data show it: active = inhibition above about 6.5%; inactive = the rest.

Test: GFP fluorescence inhibitors and quenchers, artefact control for Rin1-Abl interaction inhibitor project, biochemical (AID 602125);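 also: ABL1-eGFP fusion protein alone without its partner RIN1-SBP; 0% = protein with vehicle and 100% = wells lacking protein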
Conditions: inhibitors/quenchers counterscreen, at 6.75 µM, hits give high values
With `O=c1[nH]c2ccccc2n1C1CCN(C(c2cccs2)c2nnnn2C2CCCCC2)CC1` (stereo unspecified) the inhibition was inactive: -0.29%. With `COc1cccc(C(c2nnnn2C2CCCCC2)N2CCC(n3c(=O)[nH]c4ccccc43)CC2)c1OC` (stereo unspecified) the inhibition was inactive: -1.2%. In the case of `CCC(c1nnnn1C1CCCCC1)N1CCC(n2c(=O)[nH]c3ccccc32)CC1` (stereo unspecified), the inhibition is reported as inactive: 0.13%. In the case of `CCC(c1nnnn1C1CCCC1)N1CCC(n2c(=O)[nH]c3ccccc32)CC1` (stereo unspecified), the inhibition is reported as inactive: -0.81%. In the case of `O=c1[nH]c2ccccc2n1C1CCN(C(c2cc3ccccc3o2)c2nnnn2C2CCCCC2)CC1` (stereo unspecified), the inhibition is reported as inactive: -0.17%. In the case of `CCC(c1nnnn1C(C)(C)C)N1CCC(n2c(=O)[nH]c3ccccc32)CC1` (stereo unspecified), the inhibition is reported as inactive: -1.58%.
